In paper PMC8618441, “From Natural Xanthones to Synthetic C-1 Aminated 3,4-Dioxygenated Xanthones as Optimized Antifouling Agents” (Marine Drugs, 2021):

Test system: Roseobacter litoralis CECT 5395
Test: Biofilm-forming marine bacteria growth bioassay
Type: cell-based
Settings: R. litoralis, concentrations between 2 and 32 µM (Figure S1)
Text: Five strains of marine biofilm-forming bacteria from the Spanish Type Culture Collection (CECT): Cobetia marina CECT 4278, Vibrio harveyi CECT 525, Halomonas aquamarina CECT 5000, Pseudoalteromonas atlantica CECT 570, and Roseobacter litoralis CECT 5395 were selected for antibacterial screening of the most promising anti-settlement compounds Phylogenetically different bacterial strains were selected to have a broader representation of different susceptibilities regarding antifouling promising compounds, and at the same time, were represented in biofouling films characterized in the Portuguese coast. The experimental procedure was performed as previously reported by Almeida et al.. Briefly, bacteria were inoculated and incubated for 24 h at 26 °C in marine broth (Difco) at an initial density of 0.1 (OD600) in 96 well flat-bottom microtiter plates and exposed to the test compounds at 15 μM. Bacterial growth inhibition in the presence of the compounds was determined in quadruplicate at 600 nm using a microplate reader (Biotek Synergy HT, Winooski, VT, USA). Negative and positive controls used were a solution of marine broth with 0.1% DMSO, and a stabilized solution of marine broth with penicillin-streptomycin-neomycin, respectively. […]

COc1cc(C(Br)Br)c2c(=O)c3ccccc3oc2c1OC [Compound 6, 1-(dibromomethyl)-3,4-dimethoxy-9H-xanthen-9-one]
antibacterial bioactivity in concentration–response study: not confirmed
